Test results: US6756233B1 (dated 2004)

Test system: albumin and/or SHBG
Design: species or system human

For O=C([O-])c1ccccc1O.[Na+] [sodium salicylate], the “effect on protein-bound testosterone and tracer” value was “displace testosterone from albumin and/or SHBG”.
